Three molecules from patent US9156855B2, “Regulation of nitric oxide release and biofilm development” (Newsouth Innovation Pty Limited, priority 2011, dated 2015) can be followed below.

Assay [1] has as its system β-lactamase expressing P. aeruginosa cell extracts. As to conditions: Tris buffer pH 7.0, cell extract of ampicillin-induced cells.
The subject of assay [2] is non-β-lactamase-expressing E. coli cell extracts. Particulars: Tris buffer pH 7.0, cell extract.
Assay [3] relates to extracellular β-lactamases of P. aeruginosa. Format: biochemical.
In assay [4] the test system is β-lactamase (penicillinase, Sigma Aldrich). The assay is described as follows: Amperometric nitric oxide release on exposure to penicillinase. Format: biochemical.
For assay [5], the system named is P. aeruginosa MA67 biofilms. As to conditions: imipenem 0.5 μg/mL 1 h pre-treatment, 15 mins exposure, crystal violet.
Assay [6] relates to P. aeruginosa PAO1 wild type biofilms. The assay can be described thus: Biofilm dispersal assay, 24-well batch culture, PAO1. Format: cell-based.
Assay [7] has as its system Staphylococcus aureus biofilms. Particulars: 10 min after treatment.
Assay [8] has as its system P. aeruginosa biofilm and planktonic cells. From the text:
FIG. 11. […] Error bars indicate standard error; n=2.
Planktonic growth was quantified at various time points by direct measurement of OD600 of the supernatant. […] For each time point, planktonic bacteria were collected, serially diluted in sterile phosphate-buffered saline (PBS) and spread on LB agar plates. Biofilms were gently rinsed once with PBS and resuspended from the wall and bottom well surfaces (total surface area=4.4 cm^2) using a sterile cotton swab. Bacterial aggregates were further disrupted in a bath sonicator for 10 min. Biofilm bacteria were then serially diluted and spread on LB agar plates. Colony forming units (CFU) were determined after 1 day incubation at 37° C.

Assay [9] has as its system P. aeruginosa NSGFP reporter strain (nirS-GFP). Format: cell-based.
The subject of assay [10] is Serratia marcescens biofilms. Particulars: 10 min after treatment.
The subject of assay [11] is P. aeruginosa biofilms. As to conditions: 10 μM and 100 μM, 15 min, imipenem 0.5 μg/mL 1 h pre-treatment.
The subject of assay [12] is P. aeruginosa FRD1 biofilms. As to conditions: 100 μM, 10 min, biofilms grown for 24 h.
Assay [13] deals with P. aeruginosa PAO1 wild type cells. The assay can be described thus: Planktonic growth inhibition, minimum inhibitory concentration. It counts as cell-based. As to conditions: Pseudomonas aeruginosa, PAO1, 20 h.
For assay [14], the system named is Escherichia coli biofilms. As to conditions: 10 min after treatment.
In assay [15] the test system is Vibrio cholerae biofilms. As to conditions: 10 min after treatment.
For assay [16], the system named is P. aeruginosa PAO1 biofilms. As to conditions: 100 μM, continuous flow, M9 minimal medium. From the text: FIG. 9. […] Data is representative of two independent experiments.
The mark [17] stands for this setting: 10 min exposure, compared to untreated controls.

Values after ≈ are worked out from the molar mass of the structure shown.

Take `CCN(CC)/[N+]([O-])=N/OCC1=C(C(=O)O)N2C(=O)C(NC(=O)Cc3ccccc3)C2SC1` (stereo not shown) [Compound 15]: the nitric oxide release entry is reported as “nitric oxide is released” in [1], “smaller yet measurable release of nitric oxide” in assay [2] and “trigger release of nitric oxide” in [3] (supernatant of culture pre-treated with imipenem 0.5 μg/ml 1 h). Also, the “nitric oxide release after addition of ampicillin” value in [3] (500 μl of 100 μg/ml ampicillin added to imipenem-treated cells supernatant) is “did not inhibit nitric oxide release”. For the same molecule, the “release of nitric oxide triggered by penicillinase, effect of pH” value in [4] (between pH 5 and 7) was “varies slightly”; in assay [4] (pH 9), “greatly reduced”.

One may read the MIC as the lowest concentration found to suppress growth. In the case of `CCN(CC)/[N+]([O-])=N/OCC1=C(C(=O)O)N2C(=O)C(NC(=O)Cc3ccccc3)C2SC1` (stereo not shown) [Compound 21], in assay [5], the “dispersal of pre-established biofilms, dose dependence” value was “dose dependent”. The “biofilm biomass reduced (CV staining)” value in assay [6] (setting [17]) is reported as 55%. Besides, in assay [6] (setting [17]), the “planktonic biomass increased (OD600nm of supernatants)” value worked out at 20%. Further, in [6] (range 10-100 μM, 10 min), the “biofilm dispersal, dose dependence” value was “induces dispersal in a dose dependent manner”. For the same molecule, the biofilm dispersal result in assay [7], in assay [10], in [14] and in assay [15] was “induces rapid dispersal” throughout. In assay [8] (100 μM alone, 1 h treatment, untreated 1.9×10^8), the “biofilm CFU” value was 1.3×10^8 CFU per well. Moreover, in [8] (100 μM alone, 1 h treatment, untreated 4.8×10^8), the “planktonic CFU” value is given as 11×10^8 CFU per well. The “efficacy of 10 μM ceftazidime against both biofilm and planktonic bacteria in the presence of Compound 21” value in assay [8] (1 h, compared to ceftazidime alone) is listed as “increased”. For the same molecule, the “increase in efficacy of ceftazidime against biofilm bacteria in the presence of Compound 21” value in assay [8] (2 h treatments, compared to without Compound 21) stood at 2.3 fold. Also, in [9] (150 μM alone, cells with or without pre-activation of β-lactamase activity, 2 h), the GFP-response result is reported as “GFP-response greater than the response triggered by SNP”. In assay [9] (β-lactamase induced by subinhibitory ampicillin (50 μg/ml)), the “cleavage and nitric oxide availability to bacteria (GFP response)” value is listed as “enhanced”. Besides, the “biofilm dispersion after induction of extracellular β-lactamase” value in [11] is given as “enhanced biofilm-dispersion effects”. Moreover, in [12], the “dispersal (CV staining)” value stood at 30%. In addition, the lowest concentration to inhibit growth in assay [13] (MIC) was 4 mM (≈ 1850 µg/mL). Also, in assay [16], the “released cells (OD600 of the effluent)” value is “rapid and significant increase in released cells”.

In the case of `O=C(Cc1ccccc1)NC1C(=O)N2C(C(=O)O)=C(CO/N=[N+](\[O-])N3CCCC3)CSC12` (stereo not shown) [Compound 23], the “dispersal of pre-established biofilms, dose dependence” value in [5] is on record as “dose dependent”.
